# According to patent US20230365568A1, “PLK1 POLO BOX DOMAIN INHIBITORS AND METHOD OF TREATING CANCER” (The United States of America,as represented by the …, priority 2020, published 2023):
# Tested on: HeLa cells
# Experiment: Mitotic arrest and antiproliferation in HeLa cells (DAPI staining, cell counts)
# Assay type: cell-based
# Conditions: 100 μM
row,SMILES,induction of mitotic arrest (rounded cells with apoptotic or aberrant chromosome morphologies)
1,"CCCn1c(=O)c2cccc(F)c2n2c(SC)nnc12 [compound 145, 9-fluoro-1-(methylthio)-4-propyl-[1,2,4]triazolo[4,3-a]quinazolin-5(4H)-one]",effectively induced rounded cells with apoptotic or aberrant chromosome morphologies
2,"CCCn1c(=O)c2ccccc2n2c(SC)nnc12 [compound 143, 1-(methylthio)-4-propyl-[1,2,4]triazolo[4,3-a]quinazolin-5(4H)-one]",effectively induced rounded cells with apoptotic or aberrant chromosome morphologies
